Here are results for one molecule from patent publication US20170145104A1 (Bristol-Myers Squibb, published 2017).

In assay [1] the target is T1, cynomolgus GITR on activated cynomolgus T cells (cynomolgus, UniProt Q9Y5U5 26-241 (human entry)).
T1 construct: also called cyno GITR
T1 chain: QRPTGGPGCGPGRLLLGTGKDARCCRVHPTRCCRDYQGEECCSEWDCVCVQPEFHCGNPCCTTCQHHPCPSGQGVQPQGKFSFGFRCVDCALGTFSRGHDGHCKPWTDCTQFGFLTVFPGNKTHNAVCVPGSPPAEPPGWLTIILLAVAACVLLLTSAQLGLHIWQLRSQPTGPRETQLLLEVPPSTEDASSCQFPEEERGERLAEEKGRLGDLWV
The assay is described as follows: binding to activated cyno CD4+ T cells (anti-CD3/anti-CD28).

Assay [2] has as its target T2, human GITR, membrane bound (on activated human T cells and on 3A9-hGITR cells) (human, UniProt Q9Y5U5 26-241).
T2 construct: whole, on cells; the cell is named under assay; also called huGITR; TNFRSF18
T2 sequence (looked up): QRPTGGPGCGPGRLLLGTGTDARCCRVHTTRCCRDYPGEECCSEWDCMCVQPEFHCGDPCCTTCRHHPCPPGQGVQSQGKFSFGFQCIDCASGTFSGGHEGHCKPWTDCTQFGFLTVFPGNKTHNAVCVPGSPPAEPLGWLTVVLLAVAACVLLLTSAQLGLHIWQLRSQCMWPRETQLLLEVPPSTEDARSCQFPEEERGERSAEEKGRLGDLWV
The assay is described as follows: Scatchard analysis, 125I-labelled antibody on 3A9-huGITR cells.

Assay [3] deals with T2, human GITR, membrane bound (on …). The experiment in a line: Scatchard analysis, 125I-labelled antibody on 4 day stimulated human CD4+ T cells.
The target is the same in assay [4]. The experiment in a line: Scatchard analysis, 125I-labelled antibody on 3 day stimulated human CD4+ T cells.
Assay [5] shares this target. The experiment in a line: binding to activated human CD4+ T cells (anti-CD3/anti-CD28).
Assay [6] addresses T1, cynomolgus GITR on activated cynomolgus …. The assay is described as follows: binding to activated cyno CD8+ T cells (anti-CD3/anti-CD28).
The target in assay [7] is T2, human GITR, membrane bound (on …). The assay is described as follows: binding to activated human CD8+ T cells (anti-CD3/anti-CD28).

B1: 28F3.IgG1.1 (antibody)
heavy: QVQLVESGGGVVQPGRSLRLSCAASGFTFSSYGMHWVRQAPGKGLEWVAVIWYEGSNKYYADSVKGRFTISRDNSKNTLYLQMNSLRAEDTAVYYCARGGSMVRGDYYYGMDVWGQGTTVTVSSASTKGPSVFPLAPSSKSTSGGTAALGCLVKDYFPEPVTVSWNSGALTSGVHTFPAVLQSSGLYSLSSVVTVPSSSLGTQTYICNVNHKPSNTKVDKRVEPKSCDKTHTCPPCPAPEAEGAPSVFLFPPKPKDTLMISRTPEVTCVVVDVSHEDPEVKFNWYVDGVEVHNAKTKPREEQYNSTYRVVSVLTVLHQDWLNGKEYKCKVSNKALPSSIEKTISKAKGQPREPQVYTLPPSREEMTKNQVSLTCLVKGFYPSDIAVEWESNGQPENNYKTTPPVLDSDGSFFLYSKLTVDKSRWQQGNVFSCSVMHEALHNHYTQKSLSLSPG
light: AIQLTQSPSSLSASVGDRVTITCRASQGISSALAWYQQKPGKAPKLLIYDASSLESGVPSRFSGSGSGTDFTLTISSLQPEDFATYYCQQFNSYPYTFGQGTKLEIKRTVAAPSVFIFPPSDEQLKSGTASVVCLLNNFYPREAKVQWKVDNALQSGNSQESVTEQDSKDSTYSLSSTLTLSKADYEKHKVYACEVTHQGLSSPVTKSFNRGEC
notes: 28F3 variable regions with effectorless IgG1.1 constant region; also called 28.IgG1.1
For the molecule B1, the EC50 in assay [1] came out at 0.86 nM; in assay [5] it was 0.67 nM; in assay [6], 0.74 nM; in assay [7], 0.65 nM. Moreover, the Kd amounted to 0.5 nM in assay [2], 0.87 nM in assay [3] and 0.7 nM in assay [4].

As usually defined, the EC50 is the midpoint of the concentration-response curve. Read a high EC50 as lower potency in that assay. As usually defined, the Kd is a measure of binding affinity in units of concentration. Lower therefore signals a tighter complex.
